# Reference: patent publication US20250223607A1, “HPPD Variants and Methods of Use” (BASF Agricultural Solutions Seed US LLC, priority 2013, published 2025)
# Protein sequences, listed by entry. Tags and fused reporters are not part of them. Chains listed by the source or under a name are the forms on record and can include a tag or linker.
# UniProt P93836, other isoform, or with tags, fused parts or gaps K421V: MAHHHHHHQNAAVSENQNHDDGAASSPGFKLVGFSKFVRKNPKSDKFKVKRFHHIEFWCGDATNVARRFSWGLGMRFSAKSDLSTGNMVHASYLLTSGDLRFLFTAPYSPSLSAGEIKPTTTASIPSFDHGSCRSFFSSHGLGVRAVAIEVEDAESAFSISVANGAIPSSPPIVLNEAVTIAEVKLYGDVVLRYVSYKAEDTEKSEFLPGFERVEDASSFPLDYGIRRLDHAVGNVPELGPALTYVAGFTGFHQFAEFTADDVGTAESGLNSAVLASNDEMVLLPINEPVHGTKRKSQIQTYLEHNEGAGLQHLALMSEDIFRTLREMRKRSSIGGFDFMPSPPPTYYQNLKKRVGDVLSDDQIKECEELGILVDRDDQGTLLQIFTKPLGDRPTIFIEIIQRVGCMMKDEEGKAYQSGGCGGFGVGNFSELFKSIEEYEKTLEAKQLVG
# UniProt P93836, other isoform, or with tags, fused parts or gaps L368M: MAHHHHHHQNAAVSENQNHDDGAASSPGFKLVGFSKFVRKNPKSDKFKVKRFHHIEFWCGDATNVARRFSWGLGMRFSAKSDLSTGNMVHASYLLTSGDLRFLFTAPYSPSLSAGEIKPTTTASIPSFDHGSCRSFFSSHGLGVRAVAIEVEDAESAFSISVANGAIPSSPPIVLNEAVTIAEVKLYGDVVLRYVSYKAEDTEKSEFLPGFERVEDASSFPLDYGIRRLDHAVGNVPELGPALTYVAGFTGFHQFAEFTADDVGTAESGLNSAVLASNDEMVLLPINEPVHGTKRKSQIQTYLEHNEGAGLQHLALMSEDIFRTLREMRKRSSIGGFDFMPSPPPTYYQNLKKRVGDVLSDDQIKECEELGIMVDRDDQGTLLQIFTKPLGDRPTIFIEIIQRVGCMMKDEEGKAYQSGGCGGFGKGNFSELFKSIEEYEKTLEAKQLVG
# UniProt P93836, other isoform, or with tags, fused parts or gaps K421Q: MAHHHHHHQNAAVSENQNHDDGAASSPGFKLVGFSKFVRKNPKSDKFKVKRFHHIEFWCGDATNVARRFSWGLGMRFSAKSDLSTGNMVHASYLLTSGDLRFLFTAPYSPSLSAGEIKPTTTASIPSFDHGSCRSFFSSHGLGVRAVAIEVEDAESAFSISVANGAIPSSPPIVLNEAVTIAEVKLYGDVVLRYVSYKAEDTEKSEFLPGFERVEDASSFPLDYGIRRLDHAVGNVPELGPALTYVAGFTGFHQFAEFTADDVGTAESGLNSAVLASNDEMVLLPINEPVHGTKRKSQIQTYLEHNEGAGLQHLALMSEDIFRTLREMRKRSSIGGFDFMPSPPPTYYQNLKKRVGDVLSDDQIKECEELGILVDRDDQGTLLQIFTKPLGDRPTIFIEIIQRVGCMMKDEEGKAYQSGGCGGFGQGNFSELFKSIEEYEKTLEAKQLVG
# UniProt P93836, other isoform, or with tags, fused parts or gaps P280A: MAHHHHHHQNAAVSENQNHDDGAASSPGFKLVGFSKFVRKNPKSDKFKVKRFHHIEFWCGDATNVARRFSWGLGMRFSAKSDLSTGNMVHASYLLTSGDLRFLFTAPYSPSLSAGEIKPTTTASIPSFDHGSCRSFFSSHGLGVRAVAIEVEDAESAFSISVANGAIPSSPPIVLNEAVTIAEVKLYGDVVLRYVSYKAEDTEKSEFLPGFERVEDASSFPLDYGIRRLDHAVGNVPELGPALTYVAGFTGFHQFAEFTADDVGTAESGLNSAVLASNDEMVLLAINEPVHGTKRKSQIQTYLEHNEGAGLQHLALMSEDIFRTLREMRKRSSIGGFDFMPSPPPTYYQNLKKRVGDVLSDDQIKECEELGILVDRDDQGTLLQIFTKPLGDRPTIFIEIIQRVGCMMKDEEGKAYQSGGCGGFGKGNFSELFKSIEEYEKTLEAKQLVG
# UniProt P93836, other isoform, or with tags, fused parts or gaps V269A: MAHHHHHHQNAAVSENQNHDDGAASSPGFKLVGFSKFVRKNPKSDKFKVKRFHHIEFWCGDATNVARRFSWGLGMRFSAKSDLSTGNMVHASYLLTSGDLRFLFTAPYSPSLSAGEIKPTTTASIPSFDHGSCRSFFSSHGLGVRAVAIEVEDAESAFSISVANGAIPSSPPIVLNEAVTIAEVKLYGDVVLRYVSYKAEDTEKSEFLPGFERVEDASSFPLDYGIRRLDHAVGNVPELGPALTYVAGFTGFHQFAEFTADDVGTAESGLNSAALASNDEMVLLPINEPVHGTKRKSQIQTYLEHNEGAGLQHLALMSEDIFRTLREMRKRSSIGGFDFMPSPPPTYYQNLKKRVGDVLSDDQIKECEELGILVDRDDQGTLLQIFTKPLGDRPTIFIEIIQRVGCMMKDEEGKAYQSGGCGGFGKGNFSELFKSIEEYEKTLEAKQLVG
# UniProt P93836, other isoform, or with tags, fused parts or gaps K421I: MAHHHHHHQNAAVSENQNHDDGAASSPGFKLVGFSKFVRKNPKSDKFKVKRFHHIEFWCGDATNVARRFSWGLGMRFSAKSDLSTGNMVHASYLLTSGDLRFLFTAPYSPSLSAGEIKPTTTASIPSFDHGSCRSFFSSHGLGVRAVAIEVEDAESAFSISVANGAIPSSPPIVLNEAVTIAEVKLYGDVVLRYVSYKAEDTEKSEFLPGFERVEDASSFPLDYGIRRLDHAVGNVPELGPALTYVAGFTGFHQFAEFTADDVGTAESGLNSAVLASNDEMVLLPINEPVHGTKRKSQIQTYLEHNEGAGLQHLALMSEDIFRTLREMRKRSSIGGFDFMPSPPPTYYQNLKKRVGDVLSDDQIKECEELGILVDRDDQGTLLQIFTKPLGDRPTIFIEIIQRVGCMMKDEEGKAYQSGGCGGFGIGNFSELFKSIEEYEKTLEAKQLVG
# UniProt P93836, whole entry E252S: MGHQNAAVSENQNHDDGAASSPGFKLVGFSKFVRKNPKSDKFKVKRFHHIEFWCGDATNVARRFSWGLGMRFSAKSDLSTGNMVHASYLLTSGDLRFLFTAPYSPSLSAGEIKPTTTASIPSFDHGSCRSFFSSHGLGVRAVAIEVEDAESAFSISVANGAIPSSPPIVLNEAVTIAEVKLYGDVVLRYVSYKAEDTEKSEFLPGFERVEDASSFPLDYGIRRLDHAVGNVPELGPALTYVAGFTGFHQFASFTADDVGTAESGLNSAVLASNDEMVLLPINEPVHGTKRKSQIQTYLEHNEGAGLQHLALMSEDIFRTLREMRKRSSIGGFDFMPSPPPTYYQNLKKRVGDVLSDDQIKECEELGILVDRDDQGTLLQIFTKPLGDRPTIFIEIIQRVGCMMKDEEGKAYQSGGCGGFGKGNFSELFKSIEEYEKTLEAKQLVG
# Experiments:
# Experiment in all cases: biochemical
# [1] = biological target: T1, Arabidopsis HPPD single point mutant SEQ ID No. 50 (Arabidopsis thaliana, UniProt P93836, K421V)
# T1 construct: made in house; host or cells: E. coli BL21 (DE3)
# Description: (§1) In this content, pI50-value means the log value of the concentration of inhibitor necessary to inhibit 50% of the enzyme activity in molar concentration.
# [2] = biological target: T2, Arabidopsis HPPD single point mutant SEQ ID No. 44 (Arabidopsis thaliana, UniProt P93836, L368M)
# T2 construct: made in house; host or cells: E. coli BL21 (DE3)
# Description: as §1
# [3] = biological target: T3, Arabidopsis HPPD single point mutant SEQ ID No. 48 (Arabidopsis thaliana, UniProt P93836, K421Q)
# T3 construct: made in house; host or cells: E. coli BL21 (DE3)
# Description: as §1
# [4] = biological target: T4, Arabidopsis HPPD single point mutant SEQ ID No. 42 (Arabidopsis thaliana, UniProt P93836, P280A)
# T4 construct: made in house; host or cells: E. coli BL21 (DE3)
# Description: as §1
# [5] = biological target: T5, Arabidopsis HPPD single point mutant SEQ ID No. 40 (Arabidopsis thaliana, UniProt P93836, V269A)
# T5 construct: made in house; host or cells: E. coli BL21 (DE3)
# Description: as §1
# [6] = biological target: T6, Arabidopsis HPPD single point mutant SEQ ID No. 46 (Arabidopsis thaliana, UniProt P93836, K421I)
# T6 construct: made in house; host or cells: E. coli BL21 (DE3)
# Description: as §1
# [7] = biological target: T7, Arabidopsis HPPD single point mutant SEQ ID No. 35 (Arabidopsis thaliana, UniProt P93836, E252S)
# T7 construct: made in house; host or cells: E. coli BL21 (DE3)
# Description: as §1
SMILES,IC50 [1] [µM],IC50 [2] [µM],IC50 [3] [µM],IC50 [4] [µM],IC50 [5] [µM],IC50 [6] [µM],IC50 [7] [µM]
"CS(=O)(=O)c1cc(C(F)(F)F)ccc1C(=O)C(C#N)C(=O)C1CC1 (centres unmarked) [Diketonitrile, 2-cyano-3-cyclopropyl-1-(2-methylsulphonyl-4-trifluoromethylphenyl)-propane-1,3-dione]",7.94,2.51,< 2.51,6.31,6.31,10,12.6
"CS(=O)(=O)c1ccc(C(=O)C2C(=O)CCCC2=O)c(Cl)c1COCC1CCCO1 (centres unmarked) [Tefuryltrione, 2-[2-chloro-4-(methylsulfonyl)-3-[[(tetrahydro-2-furanyl)methoxy]methyl]benzoyl]-1,3 cyclohexanedione]",3.98,< 2.51,< 2.51,3.16,3.98,6.31,6.31
